Substitutions are numbered along the chain they refer to. Names may count otherwise.

These results are taken from patent US20190177410A1 (Regeneron, published 2019).

Common to all, as to assay: cell-based or functional assay
Test [1] concerns the target T1, full-length human APLNR (hAPLNR) (human, UniProt P35414 1-380).
T1 sequence: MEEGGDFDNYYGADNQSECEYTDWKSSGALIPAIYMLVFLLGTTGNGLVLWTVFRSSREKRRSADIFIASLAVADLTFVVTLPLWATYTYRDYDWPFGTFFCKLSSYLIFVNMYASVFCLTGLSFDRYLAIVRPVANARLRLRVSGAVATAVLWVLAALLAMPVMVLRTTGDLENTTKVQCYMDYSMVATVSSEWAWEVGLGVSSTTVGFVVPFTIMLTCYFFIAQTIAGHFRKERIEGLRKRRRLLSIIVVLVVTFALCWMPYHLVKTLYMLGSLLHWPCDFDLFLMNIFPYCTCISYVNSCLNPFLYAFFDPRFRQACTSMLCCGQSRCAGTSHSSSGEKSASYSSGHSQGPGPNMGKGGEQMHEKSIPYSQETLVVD

Test [2] deals with T1, full-length human APLNR (hAPLNR). This is another data set of the same source.
For test [3] the target is unchanged. This is another data set of the same source.
In test [4] the target is T2, human Apelin receptor (hAPLNR) of PathHunter eXpress AGTRL1 CHO-K1 beta-Arrestin cells (human, UniProt P35414 1-380).
T2 sequence: T1 sequence

The target of test [5] is T1, full-length human APLNR (hAPLNR). The source holds these as a separate data set.

B1: H4H9209N-4-NVH3 (antibody, V domains shown)
VH: EVQLLESGGGLVQPGGSLRLSCAASGFTFSNYAMNWVRQAPGRGLEWVSAIHYDGSNSYYADSVKGRFTISRDNSKNTLYLQMNSLRAEDTAIYYCAILSRVYWGQGTLVTVSS
VL: DIQMTQSPSSLSASVGDRVTITCRASQGINNYLAWFQQKPGKAPKSLIYATSSLQSGVPSKFSGSGSGTDFTLTISSLQPEDFATYYCQQYNSYPLTFGGGTKVEIK
As for B1, in test [1], the “% Activation at 100 nM mAb (7.5 uM Forskolin), CRE-luc” value was 100%.

B2: H4H9209N-APN9-(G4S)3 (antibody, V domains shown)
VH: B1 VH
VL: B1 VL
The % Inhibition is the percentage by which the read-out fell short of the control. On to B2, for which, in test [2], the “% Inhibition at 100 nM mAb, in the presence of 100 pM Apelin (at 7.5 uM Forskolin), CRE-luc” value (“% Inhibition at 100 nM mAb” below) is 14%.

B3: H4H9209N-APN11+S-(G4S)3 (antibody, V domains shown)
VH: B1 VH
VL: B1 VL
With B3, the “% Activation at 100 nM mAb (7.5 uM Forskolin), CRE-luc” value in test [1] came to 100%.

B4: H4H9209N-APN11-(G4S)3 (antibody, V domains shown)
VH: B1 VH
VL: B1 VL
As for B4, in test [1], the “% Activation at 100 nM mAb (7.5 uM Forskolin), CRE-luc” value was found to be 100% and the “EC50 [M] (7.5 uM Forskolin), CRE-luc” value is 2.7e-11 M.

B5: H4H9093P-3-NVH3 (antibody, V domains shown)
VH: EVQLVESGGGLVKPGGSLRLSCAASGITFSNAWMSWVRQAPGKGLEWVGRFKGKADGGTVDYAAPVKGRFTISRDDSKNTLYLQMNSLKNEDTAVYYCTTGRITMVRGVLGYWGQGTLVTVSS
VL: not shown
Take B5: the “% Activation at 100 nM mAb (7.5 uM Forskolin), CRE-luc” value in test [1] was 100%. Besides, the “Activating EC50 (M), ratio of pERK1/2 to total ERK1/2, CHO/hAPLNR cells” value in test [3] was found to be 5.42e-10 M.

B6: H4H9093P-APN11+S-(G4S)3 (antibody, V domains shown)
VH: B5 VH
VL: not shown
With B6, in test [1], the “% Activation at 100 nM mAb (7.5 uM Forskolin), CRE-luc” value came out at 100% and the “EC50 [M] (7.5 uM Forskolin), CRE-luc” value was found to be 9.2e-11 M.

B7: H4H9093P-APN10-(G4S)3 (antibody, V domains shown)
VH: B5 VH
VL: not shown
Turning to B7, the “% Activation at 100 nM mAb (7.5 uM Forskolin), CRE-luc” value in test [1] is 50%. The “% Inhibition at 100 nM mAb” value in test [2] stood at 15%.

B8: H4H9093P-APN9-(G4S)3 (antibody, V domains shown)
VH: B5 VH
VL: not shown
Consider B8, for which the “% Inhibition at 100 nM mAb” value in test [2] amounted to 27%. Also, the “EC50 [M], PathHunter beta-Arrestin assay” value in test [4] was 8.3e-09 M.

B9: H4H9093P-APN11-(G4S)3 (antibody, V domains shown)
VH: B5 VH
VL: not shown
B9: the “% Activation at 100 nM mAb (7.5 uM Forskolin), CRE-luc” value in test [1] is 100%.

B10: H4H9092P-1-NVH3 (antibody, V domains shown)
VH: B5 VH with F51I, G53S, A55V, V60I, N90T
VL: not shown
Consider B10, for which the “% Activation at 100 nM mAb (10 uM Forskolin), CRE-luc” value in test [5] came out at 100%.

B11: H4H9093P-APNV5-11-(G4S)3 (antibody)
VH: GKPIPNPLLGLDSTQRPRLSHKGPMGGGGSGGGGSGGGGSEVQLVESGGGLVKPGGSLRLSCAASGITFSNAWMSWVRQAPGKGLEWVGRFKGKADGGTVDYAAPVKGRFTISRDDSKNTLYLQMNSLKNEDTAVYYCTTGRITMVRGVLGYWGQGTLVTVSS
VL: not shown
With B11, the “% Activation at 100 nM mAb (7.5 uM Forskolin), CRE-luc” value in test [1] was determined as 100%. For the same molecule, in test [4], the “% Activation at 500 nM antibody or Apelin-antibody fusion, PathHunter beta-Arrestin assay” value came to 47% and the “EC50 [M], PathHunter beta-Arrestin assay” value is greater than 1e-07 M.
